Curated experimental data: properties

Data: OPERA 2.9 data sets, kmansouri/OPERA on GitHub.

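These are experimental values that the OPERA curators gathered from public databases to train and test their QSAR models. One number stands for a compound and property, with no spread given. How each value was measured is not recorded, so precision varies. Where a salt, mixture or single isomer is drawn, the source does not say that exactly this form was tested. Some upstream entries may be estimates or bounds without being marked so.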

Melting points are in °C.
The boiling point refers to atmospheric pressure (760 mmHg), by the definition of the set.
The octanol-water partition coefficient is given as log10; larger values mean a more lipophilic compound.
Solubility in water is on a log10 molar scale (set defined at 25 °C).
Vapor pressures (log10 mmHg) refer to near room temperature, 15 to 30 °C; higher is more volatile.
The Henry's law constant is on a log10 scale in atm·m3/mol (set defined at 25 °C); higher favours air over water.
Cells with "–" have no entry in this list.

* Brc1ccc(Oc2ccccc2)cc1Br [3,4-Dibromodiphenyl ether]: MP 20 °C; log VP -4.047 (log10 mmHg)
* CC(C)C1OCCN1CCOC(=O)NCCCCCCNC(=O)OCCN1CCOC1C(C)C (centres undefined): MP -45.05 °C; log VP -5.318 (log10 mmHg)
* CCCCCCCCCCCCCCCCOC(=O)C(CC)CCCC (centres undefined) [Hexanoic acid, 2-ethyl-, hexadecyl ester]: MP -2 °C; logP 6.15; log S -6.868 (log10 mol/L)
* C=CCOc1ccc(S(=O)(=O)c2ccc(O)cc2)cc1 [4-[[4-(Allyloxy)phenyl]sulfonyl]phenol]: MP 173.1 °C; logP 2.12; log S -4.688 (log10 mol/L); log VP -13.73 (log10 mmHg)
* Cc1nc2n(c(=O)c1CCN1CCC(c3noc4cc(F)ccc34)CC1)CCC[C@H]2O [9-Hydroxy-risperidone]: logP 1.8; log S -3.157 (log10 mol/L)
* CCO[Si](CCCCl)(OCC)OCC [(3-Chloropropyl)(triethoxy)silane]: logP 3.1; log S -3.329 (log10 mol/L); log VP -0.635 (log10 mmHg)
* Nc1cc(S(=O)(=O)O)c(Nc2ccc3c(c2S(=O)(=O)O)Oc2c(Cl)c4c(c(Cl)c2=N3)Oc2c(ccc(Nc3cc(S(=O)(=O)O)c(N)cc3S(=O)(=O)O)c2S(=O)(=O)O)N=4)cc1S(=O)(=O)O: MP 323.7 °C; logP -2.335
* CCCOc1ccc([C@H]2CC[C@H]([C@H]3CC[C@H](CCC)CC3)CC2)c(F)c1F: MP 170 °C; log S -6.624 (log10 mol/L); log VP -7.643 (log10 mmHg)
* O=C(O)CCCc1c[nH]c2ccccc12 [Indole-3-butyric acid]: log VP -6.801 (log10 mmHg); Henry's law constant -9.802 (log10 atm·m3/mol)
* CCC(CC)(CC(=O)Nc1cccc(/C=C/c2nc(C3CCC3)cs2)c1)C(=O)O [Cinalukast]: logP 4; log S -5.675 (log10 mol/L)
* CC(=O)OCNC(=O)c1ccccc1C(F)(F)F [(((2-(Trifluoromethyl)phenyl)carbonyl)amino)methyl acetate]: MP 56.2 °C; logP 1.4
* Clc1ccc(Oc2c(Cl)c(Cl)c(Cl)c(Cl)c2Cl)cc1 [2,3,4,4',5,6-Hexachlorodiphenyl ether]: MP 146 °C; log S -8.94 (log10 mol/L)
* C=CC(=O)OCCOC(=O)NCCCC [2-Propenoic acid, 2-[[(butylamino)carbonyl]oxy]ethyl ester]: MP -8.75 °C; log S -1.635 (log10 mol/L)
* C=CC(=O)OCCCCOC(=O)Oc1ccc(C(=O)O)cc1: MP 92.3 °C; logP 1.7; log S -3.424 (log10 mol/L)
* Cc1nc2c(O)cccn2c(=O)c1CCO: MP 147.5 °C; logP 0.19; log S -2.09 (log10 mol/L); log VP -6.298 (log10 mmHg)
* O=S(=O)(Cl)c1ccc2ccccc2c1 [2-Naphthalenesulfonyl chloride]: logP 2.207; log S -2.743 (log10 mol/L)
* C1CCCCCC2=C(CCCC1)CCCO2: MP -9 °C; logP 5.07; log VP -3.308 (log10 mmHg)
* CCCCC(CC)COC(=O)c1ccc(Nc2nc(Nc3ccc(C(=O)NC(C)(C)C)cc3)nc(Nc3ccc(C(=O)OCC(CC)CCCC)cc3)n2)cc1 (centres undefined) [Iscotrizinol]: MP 89.5 °C; logP 4.12; log VP -5.846 (log10 mmHg)
* Oc1c(-c2ccccc2)cccc1-c1ccccc1 [[1~1~,2~1~:2~3~,3~1~-Terphenyl]-2~2~-ol]: logP 3.9; log S -5.684 (log10 mol/L)
* [F][Sb-]([F])([F])([F])([F])[F].c1ccc(Sc2ccc([S+](c3ccccc3)c3ccccc3)cc2)cc1: MP 122 °C; logP -0.025
* O=C(O)c1cc(Br)nn1-c1ncccc1Cl: MP 199 °C; log S -1.784 (log10 mol/L); log VP -6.516 (log10 mmHg)
* CCC(C)(O)CCC=C(C)C (centres undefined) [3,7-Dimethyloct-6-en-3-ol]: logP 2.9; log S -2.09 (log10 mol/L); log VP -1.28 (log10 mmHg)
* COc1cc(NC(=O)c2cc3ccccc3cc2O)c(OC)cc1Cl: logP 2.85; log S -5.062 (log10 mol/L)
* Cc1cc2nc(O)[nH]c2cc1N [6-Amino-5-methyl-1H-benzimidazol-2-ol]: MP 334 °C; log S -1.849 (log10 mol/L); log VP -3.763 (log10 mmHg)
* C=C(C)C(=O)OC1CCC(C(C)(C)C)CC1 (centres undefined) [4-(1,1-Dimethylethyl)cyclohexyl methacrylate]: log S -6.749 (log10 mol/L); log VP -1.666 (log10 mmHg)
* CC(C)CCCCCCOC(=O)c1ccc(C(=O)OCCCCCCC(C)C)cc1 [Bis(7-methyloctyl) benzene-1,4-dicarboxylate]: boiling point 359 °C; log S -7.054 (log10 mol/L); log VP -8.648 (log10 mmHg)
* CC(C)=CC(C)(C)CC(C)(C)C [Isobutene trimer]: MP -76 °C; log S -4.846 (log10 mol/L)
* CCO[Si](CCCNC=O)(OCC)OCC [N-[3-(Triethoxysilyl)propyl]formamide]: MP -74 °C; logP 1.2; log VP -4.238 (log10 mmHg)
* Cl.Nc1cc(C(=O)NCC(O)CO)cc(C(=O)NCC(O)CO)c1 (centres undefined): MP 186 °C; logP -2.4
* CCCCCCCCCCCCSCCC(=O)OCC(COC(=O)CCSCCCCCCCCCCCC)(COC(=O)CCSCCCCCCCCCCCC)COC(=O)CCSCCCCCCCCCCCC: MP 50 °C; log S -7.667 (log10 mol/L); log VP -9.811 (log10 mmHg)
* O=C(O)C(F)(F)C(F)OC(F)(F)C(F)(F)C(F)(F)OC(F)(F)F (centres undefined) [4,8-Dioxa-3H-perfluorononanoic acid]: boiling point 183.3 °C; log VP -0.62 (log10 mmHg)
* C=C[C@]1(C)CC[C@@H](C(C)(C)O)C[C@H]1C(=C)C: MP 9 °C; boiling point 254 °C; logP 3.68; log S -3.059 (log10 mol/L); log VP -1.71 (log10 mmHg)
* C=S(=C)(C)O[C@@H]1CC(C(=O)OCC)=C[C@H]2OC(C)(C)O[C@H]21: MP 102 °C; logP 2.2; log S -3.053 (log10 mol/L); log VP -6.164 (log10 mmHg)
* BrC=Cc1ccccc1 [(2-Bromovinyl)benzene]: logP 3.391; log S -3.37 (log10 mol/L)
* CCN(CCNS(C)(=O)=O)c1ccc(N)c(C)c1: MP 66.5 °C; logP 0.822; log S -1.832 (log10 mol/L)
* CCC(CC(C)CC)=NO (centres undefined) [N-(5-Methyl-3-heptanylidene)hydroxylamine]: logP 2.3; log S -2.131 (log10 mol/L); log VP -1.271 (log10 mmHg)

The last 2 entries again:

| compound | name | MP (°C) | boiling point (°C) | logP | log S (log10 mol/L) | log VP (log10 mmHg) | Henry's law constant (log10 atm·m3/mol) |
|---|---|---|---|---|---|---|---|
| CCN(CCNS(C)(=O)=O)c1ccc(N)c(C)c1 | – | 66.5 | – | 0.822 | -1.832 | – | – |
| CCC(CC(C)CC)=NO (centres undefined) | N-(5-Methyl-3-heptanylidene)hydroxylamine | – | – | 2.3 | -2.131 | -1.271 | – |